Assay results taken from patent US6846803B1, “Antagonists specific for the corticotropin-releasing factor receptor type 2 (CRFR2)” (priority 1998, dated 2005).

By UniProt entry, the sequences of proteins in these tests, tags left out. Residues count along the entry.
UniProt Q60748, 1-431 isoform Q60748-2: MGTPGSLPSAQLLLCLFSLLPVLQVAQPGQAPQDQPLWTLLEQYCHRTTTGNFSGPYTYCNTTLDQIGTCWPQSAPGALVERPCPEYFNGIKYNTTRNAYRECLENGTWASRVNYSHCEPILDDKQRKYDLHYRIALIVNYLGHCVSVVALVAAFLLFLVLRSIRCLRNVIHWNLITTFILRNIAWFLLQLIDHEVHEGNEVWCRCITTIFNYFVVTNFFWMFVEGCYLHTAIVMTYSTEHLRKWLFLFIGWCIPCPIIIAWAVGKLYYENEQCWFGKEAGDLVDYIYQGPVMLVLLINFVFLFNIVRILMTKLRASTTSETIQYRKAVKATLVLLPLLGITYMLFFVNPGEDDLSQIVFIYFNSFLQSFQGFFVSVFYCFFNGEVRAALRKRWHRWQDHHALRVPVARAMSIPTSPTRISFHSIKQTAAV

Columns and labels:
mCRFR2β = molecular target: T1, mCRFR2β (Mus musculus, UniProt Q60748); assay: cAMP stimulation / inhibition of Svg-stimulated cAMP production in HEK-mCRFR2β cells; assay type: cell-based; details: read-out: HEK-mCRFR2β cells rel. IA (relative intrinsic activity)
T1 construct: expressed in transfected cells; host or cells: HEK 293 cells, stably transfected (HEK-mCRFR2β); membrane homogenates
Description: (§1) HEK-rCRFR1 cells or HEK-mCRFR2β cells were incubated with different CRF agonists in the presence or absence of 1 μM or 10 nM antagonist, or CRF antagonist (c=1 μM) alone. After removal of the medium, cells were lyzed with aqueous 6% trichloroacetic acid (5 min, 100° C.) (Rühmann, A., A. K. E. Köpke, F. M. Dautzenberg, and J. Spiess, Proc. Natl. Acad. Sci. USA 93: 10609-10613, 1996). The cell lysates were stored at −70° C. until assayed with a RIA kit (Amersham, Little Chalfont). […] Statistical significance was determined across groups with ANOVA, and significant differences between groups were determined by post hoc comparison using the Dunn test.
(§2) Intrinsic activities were measured at peptide concentrations generating maximal formation of cAMP in HEK-rCRFR1 or HEK-mCRFR2β cells.

rCRFR1 = molecular target: T2, rCRFR1 (Rattus norvegicus, UniProt P35353); assay: cAMP stimulation / inhibition of oCRF-stimulated cAMP production in HEK-rCRFR1 cells; assay type: cell-based; details: read-out: HEK-rCRFR1 cells rel. IA (relative intrinsic activity)
T2 construct: expressed in transfected cells; host or cells: HEK 293 cells, stably transfected (HEK-rCRFR1)
T2 sequence (P35353 24-415): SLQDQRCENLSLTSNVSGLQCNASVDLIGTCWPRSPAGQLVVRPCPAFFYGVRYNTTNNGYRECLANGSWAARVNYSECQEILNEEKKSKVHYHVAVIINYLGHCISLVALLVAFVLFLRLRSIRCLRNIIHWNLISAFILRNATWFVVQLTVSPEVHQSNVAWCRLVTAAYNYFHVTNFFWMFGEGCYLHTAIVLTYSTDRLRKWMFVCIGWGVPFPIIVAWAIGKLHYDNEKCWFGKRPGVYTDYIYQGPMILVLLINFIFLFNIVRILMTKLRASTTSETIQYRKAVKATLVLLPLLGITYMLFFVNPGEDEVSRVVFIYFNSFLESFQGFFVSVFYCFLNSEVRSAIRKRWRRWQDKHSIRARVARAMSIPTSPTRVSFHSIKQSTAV
Description: as §1, §2

SMILES: CCCC[C@H](NC(=O)[C@H](CCC(=O)O)NC(=O)[C@H](CC(C)C)NC(=O)[C@@H](NC(=O)[C@H](CCC(=O)O)NC(=O)[C@H](CCCNC(=N)N)NC(=O)[C@H](CC(C)C)NC(=O)[C@H](CC(C)C)NC(=O)[C@H](Cc1c[nH]cn1)NC(=O)c1ccc(C2(C(F)(F)F)N=N2)cc1)C(C)C)C(=O)N[C@@H](C)C(=O)N[C@@H](CCCNC(=N)N)C(=O)N[C@@H](C)C(=O)N[C@@H](CCC(=O)O)C(=O)N[C@@H](CCC(N)=O)C(=O)N[C@@H](CC(C)C)C(=O)N[C@@H](C)C(=O)N[C@@H](CCC(N)=O)C(=O)N[C@H]1CCC(=O)NCCCC[C@@H](C(=O)N[C@@H](CC(N)=O)C(=O)N[C@@H](CCCNC(=N)N)C(=O)N[C@@H](CCCCN)C(=O)N[C@@H](CC(C)C)C(=O)N[C@@H](CCCC)C(=O)N[C@@H](CCC(=O)O)C(=O)N[C@H](C(=O)N[C@H](C(N)=O)[C@@H](C)CC)[C@@H](C)CC)NC(=O)[C@H](Cc2ccc(O)cc2)NC(=O)[C@H](C)NC1=O [compound 16, ATB-cyclo(30-33)[Nle^21,38, Glu^30, Tyr^32, Lys^33]h/rCRF(13-41)]
- Emax (mCRFR2β): 0.8 ± 0.3%
- Emax (rCRFR1): 8 ± 1%

SMILES: CCCC[C@H](NC(=O)[C@H](CCC(=O)O)NC(=O)[C@H](CC(C)C)NC(=O)[C@@H](NC(=O)[C@H](CCC(=O)O)NC(=O)[C@H](CCCNC(=N)N)NC(=O)[C@H](CC(C)C)NC(=O)[C@H](CC(C)C)NC(=O)[C@H](Cc1c[nH]cn1)NC(=O)c1ccc(C2(C(F)(F)F)N=N2)cc1)C(C)C)C(=O)N[C@@H](C)C(=O)N[C@@H](CCCNC(=N)N)C(=O)N[C@@H](C)C(=O)N[C@@H](CCC(=O)O)C(=O)N[C@@H](CCC(N)=O)C(=O)N[C@@H](CC(C)C)C(=O)N[C@@H](C)C(=O)N[C@@H](CCC(N)=O)C(=O)N[C@H]1CCC(=O)NCCCC[C@@H](C(=O)N[C@@H](CC(N)=O)C(=O)N[C@@H](CCCNC(=N)N)C(=O)N[C@@H](CCCCN)C(=O)N[C@@H](CC(C)C)C(=O)N[C@@H](CCCC)C(=O)N[C@@H](CCC(=O)O)C(=O)N[C@H](C(=O)N[C@H](C(N)=O)[C@@H](C)CC)[C@@H](C)CC)NC(=O)[C@H](C)NC(=O)[C@H](C)NC1=O [compound 15, ATB-cyclo(30-33)[Nle^21,38, Glu^30, Ala^32, Lys^33]h/rCRF(13-41)]
- Emax (mCRFR2β): 1 ± 0.1%
- Emax (rCRFR1): 10 ± 1%
